Values of other authors as cited in publication PMC5097879 (European journal of medicinal chemistry, 2016).

Amino acid sequences for entries named in this document (tags omitted). Residues count along the entry.
UniProt P17787, 26-502: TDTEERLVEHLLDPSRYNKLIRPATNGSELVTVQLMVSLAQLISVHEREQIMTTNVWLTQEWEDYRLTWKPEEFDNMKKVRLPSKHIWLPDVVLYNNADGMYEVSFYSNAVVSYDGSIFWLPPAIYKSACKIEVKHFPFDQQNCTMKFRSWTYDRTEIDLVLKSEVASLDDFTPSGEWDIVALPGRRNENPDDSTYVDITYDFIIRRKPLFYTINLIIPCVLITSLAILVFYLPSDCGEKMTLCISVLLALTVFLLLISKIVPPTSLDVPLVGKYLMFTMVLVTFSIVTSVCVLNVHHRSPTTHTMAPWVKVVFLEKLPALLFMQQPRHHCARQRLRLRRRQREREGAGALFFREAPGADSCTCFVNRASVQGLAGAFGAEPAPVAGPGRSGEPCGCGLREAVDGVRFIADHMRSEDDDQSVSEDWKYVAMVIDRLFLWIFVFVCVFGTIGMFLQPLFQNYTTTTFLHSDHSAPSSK
UniProt P43681, 29-627 limits assumed: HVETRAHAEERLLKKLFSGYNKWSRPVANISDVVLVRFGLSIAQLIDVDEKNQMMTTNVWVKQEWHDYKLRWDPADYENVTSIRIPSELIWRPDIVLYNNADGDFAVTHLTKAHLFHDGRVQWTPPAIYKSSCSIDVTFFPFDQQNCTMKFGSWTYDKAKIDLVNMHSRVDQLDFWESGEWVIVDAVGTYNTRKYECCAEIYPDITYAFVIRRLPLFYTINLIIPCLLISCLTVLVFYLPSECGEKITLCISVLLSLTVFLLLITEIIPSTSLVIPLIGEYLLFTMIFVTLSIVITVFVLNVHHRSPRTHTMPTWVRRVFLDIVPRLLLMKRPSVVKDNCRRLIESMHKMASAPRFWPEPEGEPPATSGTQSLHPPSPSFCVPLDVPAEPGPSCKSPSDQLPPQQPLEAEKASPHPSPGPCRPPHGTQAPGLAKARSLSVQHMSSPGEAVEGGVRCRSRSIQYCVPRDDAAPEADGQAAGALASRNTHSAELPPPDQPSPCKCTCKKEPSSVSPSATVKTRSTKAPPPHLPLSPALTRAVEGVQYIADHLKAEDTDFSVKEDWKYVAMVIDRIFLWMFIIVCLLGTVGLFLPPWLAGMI

Assays:
HS α4β2-nAChR = HS α4β2-nAChR (Homo sapiens, UniProt P17787+P43681); details: relative to carbamylcholine; ref [8], [9]; cited from earlier work
LS α4β2-nAChR = LS α4β2-nAChR (Homo sapiens, UniProt P17787+P43681); details: relative to carbamylcholine; ref [8], [9]; cited from earlier work

CN1CCC[C@H]1c1cccnc1 [Nicotine]
Agonism HS-α4β2 Efficacy (HS α4β2-nAChR): 124 ± 8.5%
Agonism LS-α4β2 Efficacy (LS α4β2-nAChR): 70 ± 5.9%
